Values quoted from earlier work, collected in PMC3400037, “Application of a single-objective, hybrid genetic algorithm approach to pharmacokinetic model building” (Journal of Pharmacokinetics and Pharmacodynamics, 2012).

Settings: final stepwise model; oral; cited from earlier work

## CN(C)CCC[C@@]1(c2ccc(F)cc2)OCc2cc(C#N)ccc21 [Escitalopram, escitalopram]
  Inter-individual variability—ωCL of ηCL: 48.5 % (15.1 %)
